Source: patent US9289509B2, “Uses of immunoconjugates targeting CD138” (Biotest AG, priority 2009, dated 2016)

Assays:
U266 = assay: Combination with BT062 in cell lines (Chou and Talalay median effect analysis); assay type: cell-based, human; conditions: U266 cells
Description: (§1) Combination studies in xenograph mouse models were preceded by studies in cell lines. […] Here, IC50 values for the cytotoxic effects for each drug and each cell line are calculated, and then IC50 ratios for each drug pair. The cells were then exposed to dilution series of either these drug mixtures, or the drugs alone. Experimental data were analyzed using the CompuSyn software (ComboSyn, Inc., Paramus, N.J.). Combination Indexes (CI) for each independent experiment were calculated and reported separately. In the analysis, CI less than 1, equal to 1 and more than 1 indicates synergy, additivity and antagonism, respectively. According to the classification of T. C.

RPMI 8226 = assay: as above; assay type: cell-based; conditions: RPMI 8226 cells
Description: as §1

SMILES | estimate of synergy, drug combined with BT062 (U266) | estimate of synergy, drug combined with BT062 (RPMI 8226)
O=C1CCC(N2C(=O)c3ccccc3C2=O)C(=O)N1 (stereo not drawn) [Thalidomide, α-(N-phthalimido) glutarimide] | Antagonistic | –
CC(C)C[C@H](NC(=O)[C@H](Cc1ccccc1)NC(=O)c1cnccn1)B(O)O [Velcade, reference compound] | Antagonistic | Additive
